# Assay: Stability towards hydrogen exchange (NMR)
# Settings: neutral and acidic pH; deuterated chloroform treated with water, hydrochloric or acetic acid
structure (smiles),measurement,value
[2H]C1([2H])CCCC(N)(c2ccccc2Cl)C1=O (stereo not shown) [compound 11],stability towards hydrogen exchange,stable towards hydrogen exchange at neutral and acidic pH
